Experimental data as given in PubChem BioAssay (NCI).
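Following 48 hours of exposure in 96-well plates, responses at five concentrations were used to interpolate endpoints linearly. GI50 is the concentration that inhibits growth by half. At the TGI there is no net growth.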

Assays:
Test in all cases: NCI tumour cell line growth inhibition, 48 h; in the data active = GI50 below about 0.43 µM; inactive = the rest
[1] = system: LOX IMVI melanoma
[2] = system: NCI-H226 lung
[3] = system: UACC-62 melanoma
[4] = system: U251 CNS
[5] = system: HOP-62 NSCLC
[6] = system: SNB-19 CNS
[7] = system: HT29 colon
[8] = system: HCC-2998 colon
[9] = system: KM12 colon
[10] = system: MCF7 breast
[11] = system: MDA-N
[12] = system: ACHN renal
[13] = system: DU-145 prostate
[14] = system: SF-268 CNS
[15] = system: UACC-257 melanoma
[16] = system: HS 578T breast
[17] = system: SW-620 colon
[18] = system: EKVX NSCLC
[19] = system: CAKI-1 renal
[20] = system: UO-31 renal
[21] = system: NCI-H322M lung
[22] = system: HL-60(TB) leukemia
[23] = system: MALME-3M melanoma
[24] = system: K-562 leukemia
[25] = system: IGROV1 ovarian
[26] = system: RPMI-8226 leukemia
[27] = system: 786-0 renal
[28] = system: SK-MEL-28 melanoma
[29] = system: HCT-116 colon
[30] = system: MDA-MB-231 breast
[31] = system: OVCAR-3 ovarian
[32] = system: SF-295 CNS
[33] = system: HCT-15 colon
[34] = system: RXF 393 renal
[35] = system: TK-10 renal
[36] = system: SNB-75 CNS
[37] = system: NCI-H460 lung
[38] = system: OVCAR-5 ovarian
[39] = system: SK-MEL-5 melanoma
[40] = system: SR leukemia
[41] = system: SF-539 CNS
[42] = system: A549 NSCLC
[43] = system: NCI-H23 lung
[44] = system: M14 melanoma
[45] = system: NCI/ADR-RES ovarian
[46] = system: NCI-H522 lung
[47] = system: OVCAR-8 ovarian
[48] = system: MDA-MB-435
[49] = system: SN12C renal
[50] = system: COLO 205 colon
[51] = system: CCRF-CEM leukemia
[52] = system: MOLT-4 leukemia
[53] = system: OVCAR-4 ovarian
[54] = system: A498 renal
[55] = system: HOP-92 NSCLC
[56] = system: SN12K1 renal
[57] = system: DMS 114 small cell lung
[58] = system: SK-MEL-2 melanoma
[59] = system: HOP-18 NSCLC
[60] = system: P388/ADR leukemia
[61] = system: P388 leukemia
[62] = system: SK-OV-3 ovarian
[63] = system: M19-MEL melanoma
[64] = system: DLD-1 colon
[65] = system: DMS 273 small cell lung
[66] = system: SNB-78 CNS
[67] = system: LXFL 529 NSCLC
[68] = system: KM20L2 colon
[69] = system: XF 498 CNS
[70] = system: RXF-631 renal

CCC1(C)N(C)C(NC#N)=NP1(=O)O (stereo unspecified)
> 100 µM: TGI [1] | TGI [2] | TGI [3] | TGI [4] | TGI [5] | TGI [6] | TGI [7] | TGI [8] | TGI [9] | TGI [10] | TGI [11] | TGI [12] | TGI [13] | TGI [14] | TGI [15] | TGI [16] | TGI [17] | TGI [18] | TGI [19] | TGI [20] | TGI [21] | TGI [22] | TGI [23] | TGI [24] | TGI [25] | TGI [26] | TGI [27] | TGI [28] | TGI [29] | TGI [30] | TGI [31] | TGI [32] | TGI [33] | TGI [34] | TGI [35] | TGI [36] | TGI [37] | TGI [38] | TGI [39] | TGI [40] | TGI [41] | TGI [42] | TGI [43] | TGI [44] | TGI [45] | TGI [46] | TGI [47] | TGI [48] | TGI [49] | TGI [50] | TGI [51] | TGI [52]

CCNC(=O)O[C@@H]1CC[N+]2([O-])CC=C(COC(=O)C(O)(CC)c3ccc(Cl)cc3)C12 (stereo partly specified)
> 100 µM: TGI [1] | TGI [2] | TGI [3] | TGI [4] | TGI [53] | TGI [5] | TGI [54] | TGI [6] | TGI [7] | TGI [8] | TGI [9] | TGI [10] | TGI [14] | TGI [55] | TGI [15] | TGI [17] | TGI [18] | TGI [19] | TGI [20] | TGI [56] | TGI [21] | TGI [22] | TGI [23] | TGI [24] | TGI [25] | TGI [26] | TGI [57] | TGI [58] | TGI [28] | TGI [29] | TGI [31] | TGI [32] | TGI [59] | TGI [60] | TGI [33] | TGI [34] | TGI [36] | TGI [61] | TGI [62] | TGI [37] | TGI [38] | TGI [63] | TGI [39] | TGI [41] | TGI [42] | TGI [43] | TGI [64] | TGI [45] | TGI [46] | TGI [47] | TGI [49] | TGI [50] | TGI [51] | TGI [65] | TGI [66] | TGI [52]
inactive: GI50 [34] > 100 µM | GI50 [66] > 100 µM

C[C@H](N[N+](=O)[O-])C(N)=O
inactive: GI50 [1] > 100 µM | GI50 [3] > 100 µM | GI50 [4] > 100 µM | GI50 [53] > 100 µM | GI50 [5] > 100 µM | GI50 [54] > 100 µM | GI50 [6] > 100 µM | GI50 [67] > 100 µM | GI50 [7] > 100 µM | GI50 [8] > 100 µM | GI50 [9] > 100 µM | GI50 [12] > 100 µM | GI50 [14] > 100 µM | GI50 [15] > 100 µM | GI50 [17] > 100 µM | GI50 [18] > 100 µM | GI50 [19] > 100 µM | GI50 [21] > 100 µM | GI50 [23] > 100 µM | GI50 [24] > 100 µM | GI50 [25] > 100 µM | GI50 [26] > 100 µM | GI50 [27] > 100 µM | GI50 [57] > 100 µM | GI50 [58] > 100 µM | GI50 [28] > 100 µM | GI50 [29] > 100 µM | GI50 [31] > 100 µM | GI50 [32] > 100 µM | GI50 [33] > 100 µM | GI50 [34] > 100 µM | GI50 [35] > 100 µM | GI50 [36] > 100 µM | GI50 [62] > 100 µM | GI50 [37] > 100 µM | GI50 [38] > 100 µM | GI50 [63] > 100 µM | GI50 [39] > 100 µM | GI50 [68] > 100 µM | GI50 [41] > 100 µM | GI50 [42] > 100 µM | GI50 [43] > 100 µM | GI50 [44] > 100 µM | GI50 [64] > 100 µM | GI50 [47] > 100 µM | GI50 [49] > 100 µM | GI50 [50] > 100 µM | GI50 [51] > 100 µM | GI50 [65] > 100 µM | GI50 [69] > 100 µM | GI50 [66] > 100 µM | GI50 [70] > 100 µM | GI50 [52] > 100 µM
> 100 µM: TGI [1] | TGI [3] | TGI [4] | TGI [53] | TGI [5] | TGI [54] | TGI [6] | TGI [67] | TGI [7] | TGI [8] | TGI [9] | TGI [12] | TGI [14] | TGI [15] | TGI [17] | TGI [18] | TGI [19] | TGI [21] | TGI [23] | TGI [24] | TGI [25] | TGI [26] | TGI [27] | TGI [57] | TGI [58] | TGI [28] | TGI [29] | TGI [31] | TGI [32] | TGI [33] | TGI [34] | TGI [35] | TGI [36] | TGI [62] | TGI [37] | TGI [38] | TGI [63] | TGI [39] | TGI [68] | TGI [41] | TGI [42] | TGI [43] | TGI [44] | TGI [64] | TGI [47] | TGI [49] | TGI [50] | TGI [51] | TGI [65] | TGI [69] | TGI [66] | TGI [70] | TGI [52]
